# Laboratory results: PubChem BioAssay (NCI)
# The entries are a selection whose mix differs from that of the whole data set. Some salts or complexes appear as unconnected parts, following the source record. Where a structure was tested more than once in an assay, its records may differ in their call. Activity calls are given as the source filed them. Cut-off read from the data, not from the text of the source: active = growth inhibition above about 70%; inactive = the rest.
# Key:
# [1] = NCI Yeast Anticancer Drug Screen. Data for the rad50 strain (AID 155);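 note: 0% = growth of vehicle-only cultures of the same strain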; conditions: S. cerevisiae rad50 strain growth inhibition, active compounds read high
# [2] = NCI Yeast Anticancer Drug Screen. Data for the mec2-1 strain (AID 157); conditions: S. cerevisiae mec2-1 strain, active compounds read high
# [3] = NCI Yeast Anticancer Drug Screen. Data for the sgs1 mgt1 strain (AID 161);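 note: 0% = growth of cultures given vehicle only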; conditions: S. cerevisiae sgs1 mgt1 strain, active compounds read high
# [4] = NCI Yeast Anticancer Drug Screen. Data for the cln2 rad14 strain (AID 165);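 note: 0% = growth equal to vehicle treated cultures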; conditions: S. cerevisiae cln2 rad14 strain, active compounds read high
# [5] = NCI Yeast Anticancer Drug Screen. Data for the bub3 strain (AID 167); conditions: S. cerevisiae bub3 mutant strain, active compounds read high
# [6] = NCI Yeast Anticancer Drug Screen. Data for the mlh1 rad18 strain (AID 175); conditions: S. cerevisiae mlh1 rad18 strain growth inhibition, active compounds read high
# [7] = at 5.0 µM (retest, dose inferred, filed as 0.5)
# [8] = at 50.0 µM (retest, dose inferred, filed as 5.0)
Compound,growth inhibition ([1]; at 50.0 µM),growth inhibition ([2]; at 50.0 µM),growth inhibition ([3]; at 50.0 µM),growth inhibition ([4]; at 50.0 µM),growth inhibition ([5]; at 50.0 µM),growth inhibition ([6]; at 50.0 µM),"growth inhibition [1, 7]","growth inhibition [1, 8]","growth inhibition [2, 7]","growth inhibition [2, 8]","growth inhibition [3, 7]","growth inhibition [3, 8]","growth inhibition [4, 7]","growth inhibition [4, 8]","growth inhibition [5, 7]","growth inhibition [5, 8]","growth inhibition [6, 7]","growth inhibition [6, 8]"
CN(C)C(=O)OCC[N+](C)(C)CCC[N+](C)(C)CCOC(=O)N(C)C.O=[N+]([O-])c1cc([N+](=O)[O-])c([O-])c([N+](=O)[O-])c1,inactive: 10.3%,inactive: 3.25%,inactive: 5.65%,inactive: -1.4%,inactive: -1.6%,inactive: 22.1%,–,–,–,–,–,–,–,–,–,–,–,–
O=[N+]([O-])c1cc([N+](=O)[O-])c(S(=O)(=O)[O-])c([N+](=O)[O-])c1.OCC[S+](CCO)CCSCCCl,inactive: 33.2%,inactive: 14.8%,inactive: 58.5%,inactive: 53.9%,inactive: 27.8%,active: 81.7%,inactive: 8%,inactive: 22%,inactive: 9%,inactive: 34%,inactive: 12%,inactive: 43%,inactive: 3%,inactive: 24%,inactive: 3%,inactive: 15%,inactive: 10%,inactive: 32%
O=[N+]([O-])c1cc([N+](=O)[O-])c(O)c([N+](=O)[O-])c1.OCCN(CCCl)CCCl,active: 79.8%,inactive: 2.05%,inactive: 36.8%,inactive: -26.4%,–,inactive: 10.4%,inactive: -2%,inactive: 57%,inactive: 11%,inactive: 18%,inactive: 5%,inactive: 41%,inactive: -15%,inactive: 2%,–,–,inactive: 45%,active: 87%
